What was measured:
[1] = target: T1, adenosine receptor 2A (A2A) (Homo sapiens, UniProt P29274); set-up: CEREP (Poitiers, France), paid service; conditions: S1 Table, compounds given as SMILES, downloaded from ChEMBL; cited from earlier work
[2] = target: T1, adenosine receptor 2A (A2A); assay: Functional antagonist assay monitoring cAMP (CEREP); conditions: read-out: IC50, cAMP, M
[3] = target: T1, adenosine receptor 2A (A2A); assay: Functional assay monitoring Ca2+ flux (DiscoveRx); conditions: read-out: IC50, Ca2+, M;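 also: concentration-response testing with 10 µM as highest concentration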
[4] = target: T1, adenosine receptor 2A (A2A); assay: Competition binding assay using radioactive ligands (CEREP); set-up: dose or concentration left out as unconfirmed; conditions: read-out: %inhibition, binding;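 also: compounds screened at a single fixed 10 µM concentration for displacement of a radioligand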

| SMILES | IC50 [1] | inhibition [2] | inhibition [3] | inhibition [4] |
| --- | --- | --- | --- | --- |
| Nc1nc2c(cnn2CCCc2ccccc2)c2nc(-c3ccco3)nn12 | 18 nM | – | – | – |
| C[C@@H]1C[C@H]2[C@@H]3C[C@H](F)C4=CC(=O)C=C[C@]4(C)[C@@]3(F)[C@@H](O)C[C@]2(C)[C@@]1(O)C(=O)CO [Flumethasone] | – | < 50% | < 50% | < 50% |
| CCOc1ccccc1OC(c1ccccc1)C1CNCCO1 (stereo not shown) [Reboxetine] | – | < 50% | < 50% | < 50% |

From publication PMC6317804, “The integration of pharmacophore-based 3D QSAR modeling and virtual screening in safety profiling: A case study to identify antagonistic activities against adenosine receptor, A2A, using 1,897 known drugs” (PLoS ONE, 2019)
